Conditions: female, Fischer 344, rat, in vivo, iv, 10 mg/kg

CC[C@@]1(O)C(=O)OCc2c1cc1n(c2=O)Cc2cc3c(CN(C)C)c(O)ccc3nc2-1 [TPT, 9-amino-dimethyl-10-hydroxycamptothecin]
Vss/F: 1790.14 ± 348.83 mL

— patent US9999596B2 (priority 2004, dated 2018)
